Permeability data for macrocyclic peptides

Values of Townsend et al. 2020, doi:10.26434/chemrxiv.13335941.v1, as listed in CycPeptMPDB.

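Conditions beyond the assay type are not listed; see the original paper. The list need not hold all peptides of the study. Peptides that the database sets to -10, its floor, are left out.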

PAMPA is the parallel artificial membrane permeability assay, which has no cells and reads passive diffusion. Permeability is given as log10 of P in cm/s; higher (less negative) is more permeable.

The entry for CCCN1CC(=O)N[C@H](CC(C)C)C(=O)N(C)[C@H](CC(C)C)C(=O)N2CCC[C@H]2C(=O)N(C)[C@H](CC(C)C)C(=O)N[C@@H](Cc2ccccc2)C(=O)N2CCC[C@@H]2C1=O lists PAMPA -4.99 (log10 cm/s). The entry for CCCN1CC(=O)N[C@@H](CC(C)C)C(=O)N[C@H](CC(C)C)C(=O)N2CCC[C@@H]2C(=O)N(C)[C@H](CC(C)C)C(=O)N[C@@H](Cc2ccccc2)C1=O lists PAMPA -5.07 (log10 cm/s). CC(C)C[C@@H]1C(=O)N[C@@H](Cc2ccccc2)CC(=O)N2CCC[C@@H]2C(=O)N(C)[C@H](CC(C)C)C(=O)N[C@@H](Cc2ccccc2)C(=O)N(C)[C@H](C)C(=O)N1C has PAMPA -5.58 (log10 cm/s). CC(C)C[C@@H]1NC(=O)[C@H](C)N(C)C(=O)[C@H]2CCCN2C(=O)[C@H](Cc2ccccc2)NC(=O)[C@H](CC(C)C)N(C)C(=O)[C@H]2CCCN2C(=O)[C@H](CC(C)C)N(C)C1=O has PAMPA -4.95 (log10 cm/s). Listed for CC(C)C[C@@H]1NC(=O)[C@@H](CC(C)C)NC(=O)C[C@H](Cc2ccccc2)NC(=O)[C@@H]2CCCN2C(=O)[C@H](Cc2ccccc2)NC(=O)CN(Cc2ccccc2)C(=O)[C@@H]2CCCN2C1=O: PAMPA -5.98 (log10 cm/s).

CCCN1CC(=O)N[C@@H](CC(C)C)C(=O)N[C@@H](CC(C)C)C(=O)N2CCC[C@@H]2C(=O)N(C)[C@@H](CC(C)C)C(=O)N[C@@H](Cc2ccccc2)C(=O)N2CCC[C@H]2C1=O is reported with PAMPA -5.70 (log10 cm/s). CCCN1CC(=O)N(C)[C@H](CC(C)C)C(=O)N[C@H](CC(C)C)C(=O)N2CCC[C@@H]2C(=O)N[C@H](CC(C)C)C(=O)N[C@@H](Cc2ccccc2)C(=O)N2CCC[C@@H]2C1=O has PAMPA -5.65 (log10 cm/s). The entry for CC(C)C[C@@H]1NC(=O)[C@H](C)N(C)C(=O)[C@H]2CCCN2C(=O)[C@H](Cc2ccccc2)NC(=O)[C@H](CC(C)C)N(C)C(=O)[C@H]2CCCN2C(=O)[C@@H](CC(C)C)N(C)C1=O lists PAMPA -5.67 (log10 cm/s). For CC(C)C[C@@H]1NC(=O)[C@@H](C)N(C)C(=O)[C@H](Cc2ccccc2)NC(=O)CN(Cc2ccccc2)C(=O)[C@@H]2CCCN2C(=O)[C@@H](CC(C)C)N(C)C1=O the data give PAMPA -5.14 (log10 cm/s). Listed for CC(C)C[C@H]1NC(=O)[C@@H]2CCCN2C(=O)[C@@H](CC(C)C)NC(=O)[C@H](CC(C)C)N(C)C(=O)[C@H](C)N(C)C(=O)[C@@H]2CCCN2C(=O)[C@H](Cc2ccccc2)NC1=O: PAMPA -7.13 (log10 cm/s).

For CC(C)C[C@@H]1NC(=O)C[C@H](Cc2ccccc2)NC(=O)[C@H]2CCCN2C(=O)[C@H](Cc2ccccc2)NC(=O)[C@@H](CC(C)C)NC(=O)[C@@H]2CCCN2C(=O)[C@H](CC(C)C)NC1=O the data give PAMPA -5.94 (log10 cm/s). For CC(C)C[C@@H]1NC(=O)[C@H]2CCCN2C(=O)[C@H](CC(C)C)N(C)C(=O)[C@H](CC(C)C)NC(=O)[C@@H](C)N(C)C(=O)[C@H]2CCCN2C(=O)[C@H](Cc2ccccc2)NC1=O the data give PAMPA -5.97 (log10 cm/s). For CC(C)C[C@@H]1NC(=O)[C@@H](C)NC(=O)[C@H](Cc2ccccc2)NC(=O)[C@@H](CC(C)C)NC(=O)[C@@H]2CCCN2C(=O)[C@H](CC(C)C)NC1=O the data give PAMPA -6.89 (log10 cm/s). CC(C)C[C@@H]1NC(=O)[C@@H](C)N(C)C(=O)[C@H](Cc2ccccc2)NC(=O)CN(Cc2ccccc2)C(=O)[C@H]2CCCN2C(=O)[C@H](CC(C)C)N(C)C1=O has PAMPA -4.90 (log10 cm/s). CC(C)C[C@H]1NC(=O)[C@H](CC(C)C)N(C)C(=O)[C@@H](C)NC(=O)[C@H]2CCCN2C(=O)[C@H](Cc2ccccc2)NC(=O)[C@H](CC(C)C)N(C)C(=O)[C@@H]2CCCN2C1=O has PAMPA -5.91 (log10 cm/s).

The entry for CC(C)C[C@@H]1C(=O)N[C@@H](Cc2ccccc2)C(=O)N2CCC[C@H]2C(=O)N(C)[C@@H](C)C(=O)N(C)[C@@H](CC(C)C)C(=O)N[C@H](CC(C)C)C(=O)N2CCC[C@@H]2C(=O)N1C lists PAMPA -5.81 (log10 cm/s). For CCCN1CC(=O)N[C@H](CC(C)C)C(=O)N(Cc2ccccc2)CC(=O)N2CCC[C@@H]2C(=O)N(C)[C@H](CC(C)C)C(=O)N[C@@H](Cc2ccccc2)C(=O)N2CCC[C@@H]2C1=O the data give PAMPA -5.41 (log10 cm/s). The entry for CC(C)C[C@H]1NC(=O)[C@H]2CCCN2C(=O)CN(Cc2ccccc2)C(=O)[C@@H](CC(C)C)NC(=O)[C@@H](C)N(C)C(=O)[C@H]2CCCN2C(=O)[C@H](Cc2ccccc2)NC1=O lists PAMPA -6.32 (log10 cm/s). CCCN1CC(=O)N[C@@H](CC(C)C)C(=O)N(C)[C@H](CC(C)C)C(=O)N2CCC[C@H]2C(=O)N(Cc2ccccc2)CC(=O)N[C@@H](Cc2ccccc2)C(=O)N2CCC[C@@H]2C1=O is reported with PAMPA -5.64 (log10 cm/s). CC(C)C[C@H]1NC(=O)C[C@H](Cc2ccccc2)NC(=O)[C@@H]2CCCN2C(=O)[C@H](Cc2ccccc2)NC(=O)[C@H](CC(C)C)N(C)C(=O)[C@@H]2CCCN2C(=O)[C@H](CC(C)C)N(C)C1=O has PAMPA -5.84 (log10 cm/s).

CC(C)C[C@@H]1C(=O)N[C@@H](Cc2ccccc2)C(=O)N(C)[C@H](C)C(=O)N[C@H](CC(C)C)C(=O)N[C@H](CC(C)C)C(=O)N2CCC[C@H]2C(=O)N1C has PAMPA -5.80 (log10 cm/s). Listed for CCCN1CC(=O)N(C)[C@H](CC(C)C)C(=O)N[C@@H](Cc2ccccc2)CC(=O)N2CCC[C@@H]2C(=O)N(C)[C@@H](CC(C)C)C(=O)N[C@@H](Cc2ccccc2)C(=O)N2CCC[C@@H]2C1=O: PAMPA -5.17 (log10 cm/s). CC(C)C[C@@H]1NC(=O)C[C@H](Cc2ccccc2)NC(=O)[C@@H]2CCCN2C(=O)[C@H](Cc2ccccc2)NC(=O)[C@H](CC(C)C)NC(=O)[C@@H]2CCCN2C(=O)[C@@H](CC(C)C)NC1=O has PAMPA -6.29 (log10 cm/s).

The first 2 entries again:

{"smiles": "CCCN1CC(=O)N[C@H](CC(C)C)C(=O)N(C)[C@H](CC(C)C)C(=O)N2CCC[C@H]2C(=O)N(C)[C@H](CC(C)C)C(=O)N[C@@H](Cc2ccccc2)C(=O)N2CCC[C@@H]2C1=O", "PAMPA (log10 cm/s)": "-4.99"}
{"smiles": "CCCN1CC(=O)N[C@@H](CC(C)C)C(=O)N[C@H](CC(C)C)C(=O)N2CCC[C@@H]2C(=O)N(C)[C@H](CC(C)C)C(=O)N[C@@H](Cc2ccccc2)C1=O", "PAMPA (log10 cm/s)": "-5.07"}